According to the NIST ThermoML archive (doi:10.1021/je900342a):
Numbers after ± are expanded uncertainties.

Test: Molar enthalpy of transition or fusion
Conditions: Crystal; DSC

Molar enthalpy of transition or fusion: 6.68 ± 0.191 kcal/mol
SMILES: CC(C)Cc1ccc(C(C)C(=O)O)cc1 (stereo unspecified) [ibuprofen]
